# Reference: PubChem BioAssay AID1665 (Sanford-Burnham Center for Chemical Genomics, 2009)
# The list shows a part of the results, in another mix than the full data. Calls of active or inactive are those of the source.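 Rule for the calls: active = nuclear translocation activity above 50% at 5 µM, with a well cell count of 50 or more; inconclusive = wells under 50 cells across six images, flagged as toxic; inactive = the rest.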
# Test: modulators of beta-catenin nuclear translocation, primary screen, imaging, HeLa cells, immunofluorescence, high-content (AID 1665);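 note: per-cell ratio of nuclear to cytoplasmic median beta-catenin stain intensity; plate controls were DMSO negative control for no effect and GSK-3 inhibitor IX positive control for full effect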
# Settings: at 5 µM, hits give high values
# In short: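 Signal – beta-catenin immunofluorescence imaging with DAPI · Test system – human HeLa cell line · Dosing – 5 µM primary single dose, 0.1% DMSO, 0.02–20 µM confirmation series · Measure – % activation, nuclear-to-cytoplasmic median beta-catenin signal ratio per cell · Incubation – 24 h compound exposure at 37°C, 5% CO2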
row,Compound,nuclear translocation activity
1,c1ccc(CN2CCC(Nc3ccccc3)CC2)cc1,inactive: -0.4%
2,N#Cc1ccc(C(=O)NCC2(N3CCCCC3)CCCCC2)cc1,inactive: -1.5%
3,O=C(OC1CN2CCC1CC2)C1c2ccccc2C=Cc2ccccc21 (configuration not stated),inactive: -0.6%
4,N/C(=N\O)c1c(N)no[n+]1[O-],inactive: -2.8%
5,COc1ccc(C(=O)NCC2(N3CCOCC3)CCCCC2)cc1OC,inactive: -0.7%
6,CCCOc1ccc(C)cc1CN(CCCl)CCCl,inactive: -0.8%
7,COc1cc(OC)cc(C(=O)NCC2(N3CCOCC3)CCCCC2)c1,inactive: -3%
8,CCC(CO)(C(=O)OC1CN2CCC1CC2)c1ccccc1 (configuration not stated),inactive: 2%
9,CC(C)(C)OC(=O)N1CCC(Nc2ccccc2)CC1,inactive: -3.1%
10,CCOc1ncccc1C(=O)NCC1(N2CCOCC2)CCCCC1,inactive: -4.1%
11,CN(C)c1ccc(C(=O)NCC2(N3CCCCC3)CCCCC2)cc1,inactive: -0.6%
12,CCN1CCC(Nc2cccc(F)c2)CC1,inactive: -3.4%
13,Fc1ccccc1NC1CCN(Cc2ccccc2)CC1,inactive: -1.4%
14,Cc1ccc(OCC(C)C)c(CN(CCCl)CCCl)c1,inactive: 0.3%
15,COc1ccc(NC2CCN(CCc3ccccc3)CC2)c(OC)c1,inactive: -4.5%
16,CCOc1ccc(C)cc1CN(CCCl)CCCl,inactive: -4.1%
17,N#CC1(Nc2ccccc2)CCN(Cc2ccccc2)CC1,inactive: -1%
18,O=C(OC1CN2CCC1CC2)C1c2ccccc2Oc2ccccc21 (configuration not stated),inactive: -4.1%
19,O=C(NCC1(N2CCOCC2)CCCCC1)c1cc2ccccc2o1,inactive: -3.1%
20,COc1ccc(C(=O)NCC2(N3CCCCC3)CCCCC2)c(OC)c1OC,inactive: 0.5%
21,CC(C)c1ccc(NC2CCN(C(=O)OC(C)(C)C)CC2)cc1,inactive: -1.5%
22,CN(C)c1cccc(C(=O)NCC2(N3CCCCC3)CCCCC2)c1,inactive: 1%
23,COc1ccc(CN(CCCl)CCCl)cc1Cl,inactive: -1%
24,CN1CCN(CCOC(=O)C(O)(c2ccccc2)c2ccccc2)CC1,inactive: -2%
25,COc1ccc(NC2CCN(C(=O)OC(C)(C)C)CC2)cc1,inactive: -0.2%
26,N#CC1(Nc2ccccc2)CCN(CCc2ccccc2)CC1,inactive: -0.4%
27,O=C(NCC1(N2CCCCC2)CCCCC1)c1cccc([N+](=O)[O-])c1,inactive: -4.1%
